SMILES strings stand for the structures. This is a selection; strong and weak results do not stand in their true shares. Activity calls are given as the source filed them. Cut-off read from the data, not from the text of the source: active = inhibition above about 58%; inactive = the rest, inconclusive results apart; tested in S. cerevisiae.

One may read the inhibition as the relative decrease from the control value, in per cent.

The assay in a line: growth inhibition of WT strain, primary screen, mitochondrial fusion inhibitor project, WT and mutant strains, chemical genetic (AID 1362). To be noted: mitochondrial fusion phenotypic screen, at 10 µM, hits give high values.
Take `CC(=O)NC(SC(=S)N(CC(C)C)CC(C)C)C(Cl)(Cl)Cl` (configuration not stated): the inhibition is active: 68.1%.
On to `CCC(C)N(CC(C)C)C(=S)SC(NC(C)=O)C(Cl)(Cl)Cl` (configuration not stated), for which the inhibition was active: 67.7%.

Values taken from PubChem BioAssay AID1362 (SRMLSC, 2008).
